This is a selection; strong and weak results do not stand in their true shares. The source made the active and inactive calls. No stated cut-off is given here; in the data, active means FP signal below about 40; inactive means the rest.
What follows are compounds tested on RMI core complex (RMI1/RMI2) binding to FANCM MM2 peptide, human (assay: disruptors of RMI1/RMI2 association with MM2 peptide – biochemical, fluorescence polarization, human, primary screen (AID 1159607)). Conditions: RMI core complex with F-MM2 peptide, at 33 µM, hits give low values.
With `CN(CCCl)CCCl` the FP signal (polarization) was inactive: 64.
